What was measured:
NK2R WT (human TACR2) [1] = molecular target: T1, NK2R WT (human TACR2) (Homo sapiens, UniProt P21452); assay: BRET-based cAMP assay (Gs activation), NK2R; type: cell-based; conditions: Fig. S2A; compared with the other receptor/agonist conditions
T1 construct: host or cells: COS7 cells, transient calcium-precipitation transfection

Protein sequences, listed by entry. Tags and fused reporters are not part of them.
UniProt P21452, whole entry: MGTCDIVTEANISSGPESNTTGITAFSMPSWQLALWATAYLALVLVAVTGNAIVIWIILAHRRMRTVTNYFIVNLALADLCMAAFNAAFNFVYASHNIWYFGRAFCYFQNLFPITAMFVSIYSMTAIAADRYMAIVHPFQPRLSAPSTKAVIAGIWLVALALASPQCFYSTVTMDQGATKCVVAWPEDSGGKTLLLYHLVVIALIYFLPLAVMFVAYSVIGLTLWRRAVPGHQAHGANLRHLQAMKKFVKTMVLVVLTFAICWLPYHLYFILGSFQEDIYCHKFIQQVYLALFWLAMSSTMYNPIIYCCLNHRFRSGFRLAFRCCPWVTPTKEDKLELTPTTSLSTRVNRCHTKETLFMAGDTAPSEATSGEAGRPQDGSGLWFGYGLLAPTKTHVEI

NK2R WT (human TACR2) [2] = molecular target: T1, NK2R WT (human TACR2); assay: IP3 accumulation assay (Gq activation), NK2R; type: cell-based; conditions: Fig. S2B; compared with SP on NK1R and NKA on NK1R and NK2R

potency of SP activation of NK2R in IP3 accumulation assay (NK2R WT (human TACR2) [2]): two orders of magnitude lower
Compound: CSCC[C@H](NC(=O)[C@H](CC(C)C)NC(=O)CNC(=O)[C@H](Cc1ccccc1)NC(=O)[C@H](Cc1ccccc1)NC(=O)[C@H](CCC(N)=O)NC(=O)[C@H](CCC(N)=O)NC(=O)[C@@H]1CCCN1C(=O)[C@H](CCCCN)NC(=O)[C@@H]1CCCN1C(=O)[C@@H](N)CCCNC(=N)N)C(N)=O [SP, substance P]
potency of SP activation of NK2R in BRET-based cAMP assay (NK2R WT (human TACR2) [1]): substantially lower potency, differing by several orders of magnitude

Source: paper PMC12145819, “Challenging activity and signaling bias in tachykinin NK1 and NK2 receptors by truncated neuropeptides” (The Journal of Biological Chemistry, 2025)
